Assay results from ChEMBL document CHEMBL2203189, “Synthesis and pharmacology of 1-alkyl-3-(1-naphthoyl)indoles: steric and electronic effects of 4- and 8-halogenated naphthoyl substituents” (Bioorg Med Chem, 2012).

What was measured:
Type in all cases: functional
Mus musculus [1] = assay: Induction of catalepsy in iv dosed Harlan ICR mouse at 40 mins measured for 5 mins by ring immobility test
Mus musculus [2] = assay: Antinociceptive activity in iv dosed Harlan ICR mouse assessed as latency to heat-induced tail flicking at 20 mins
In short: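 Male ICR mice, 18–25 g, n = 6 per dose. Multiple doses iv by tail vein in emulphor–ethanol–saline 1:1:18. Tail-flick latency at 20 min, 10 s cutoff, expressed as %MPE.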

Mus musculus [3] = assay: Hypothermic activity in iv dosed Harlan ICR mouse assessed as change in rectal temperature at 30 mins; settings: 0.5 h

In the case of `CCCCCc1cc(O)c2c(c1)OC(C)(C)[C@@H]1CCC(C)=C[C@@H]21` [DRONABINOL], the ED50 (Mus musculus [1]) is reported as 4.8 µmol/kg, the ED50 (Mus musculus [2]) is reported as 4.5 µmol/kg and the ED50 (Mus musculus [3]) is reported as 4.5 µmol/kg.
